Laboratory results as given in US12156886B2, “Methods of increasing blood oxygen saturation” (ThermoLife International, LLC, priority 2020, dated 2024).

Tested on: methemoglobinemia induced by sodium nitrite
Assay: Sodium nitrite induced methemoglobinemia self-experiment, SpO2 and heart rate monitoring (Example 10)
Conditions: in vivo

With sodium nitrite and citric acid the side effects was “gastrointestinal distress, dizziness, brain fog, confusion, difficulty in breathing, migraine, abnormal heart palpitations”.
